Reference: patent publication US20240043563A1

Tests used:
MASP-2-CCS-Flag (human) = MASP-2-CCS-Flag (human) (UniProt O00187); experiment: SPR, Biacore T200, antibody captured on Protein A chip, MASP-2-CCS-Flag as analyte
[1] = molecular target: human MASP-2 of human serum (human) (UniProt O00187); experiment: cell-based or functional assay

Narsoplimab (antibody)
Kd (MASP-2-CCS-Flag (human)): 8.83 nM | koff (MASP-2-CCS-Flag (human)): 0.017 s⁻¹ | kon (MASP-2-CCS-Flag (human)): 1.92e+06 M⁻¹ s⁻¹ | C4 cleavage IC50 (4% human serum) [1]: 0.201 nM | IC50 of inhibition of MASP-2-catalyzed C4 cleavage (4% human serum, C4b ELISA) [1]: 0.287 nM | IC50 of inhibition of MASP-2-catalyzed C4 cleavage in 90% human serum [1]: 8.23 nM | IC50 of inhibition of MASP-2-mediated C3b production (4% C1q-removed human serum) [1]: 1.74 nM
